Assay results taken from patent US6610883B1, “Compounds having selective activity for retinoid X receptors, and means for modulation of processes mediated by retinoid X receptors” (Ligand Pharmaceuticals, Inc., priority 1992, dated 2003).

Columns and labels:
RXRβ/VDR = target: T1, RXRβ/VDR (UniProt P11473+P28704); test: Co-transfection of RXRβ and VD receptors in CV-1 cells; type: cell-based
T1 construct: expressed in transfected cells; host or cells: CV-1
T1 sequence (P28704 1-520): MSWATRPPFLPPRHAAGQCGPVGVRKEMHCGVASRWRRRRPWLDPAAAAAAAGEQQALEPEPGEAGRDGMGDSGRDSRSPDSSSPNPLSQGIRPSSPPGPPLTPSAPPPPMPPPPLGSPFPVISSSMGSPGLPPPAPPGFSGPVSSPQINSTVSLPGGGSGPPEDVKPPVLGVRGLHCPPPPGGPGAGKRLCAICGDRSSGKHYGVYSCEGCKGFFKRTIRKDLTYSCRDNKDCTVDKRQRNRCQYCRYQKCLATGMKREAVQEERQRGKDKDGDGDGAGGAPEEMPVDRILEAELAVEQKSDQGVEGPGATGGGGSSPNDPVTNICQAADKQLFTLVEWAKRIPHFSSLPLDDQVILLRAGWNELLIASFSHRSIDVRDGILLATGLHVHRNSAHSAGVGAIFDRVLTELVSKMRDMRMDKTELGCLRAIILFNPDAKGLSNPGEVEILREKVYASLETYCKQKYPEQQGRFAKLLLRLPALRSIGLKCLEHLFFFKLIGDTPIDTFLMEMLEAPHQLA
T1 sequence (P11473 1-427): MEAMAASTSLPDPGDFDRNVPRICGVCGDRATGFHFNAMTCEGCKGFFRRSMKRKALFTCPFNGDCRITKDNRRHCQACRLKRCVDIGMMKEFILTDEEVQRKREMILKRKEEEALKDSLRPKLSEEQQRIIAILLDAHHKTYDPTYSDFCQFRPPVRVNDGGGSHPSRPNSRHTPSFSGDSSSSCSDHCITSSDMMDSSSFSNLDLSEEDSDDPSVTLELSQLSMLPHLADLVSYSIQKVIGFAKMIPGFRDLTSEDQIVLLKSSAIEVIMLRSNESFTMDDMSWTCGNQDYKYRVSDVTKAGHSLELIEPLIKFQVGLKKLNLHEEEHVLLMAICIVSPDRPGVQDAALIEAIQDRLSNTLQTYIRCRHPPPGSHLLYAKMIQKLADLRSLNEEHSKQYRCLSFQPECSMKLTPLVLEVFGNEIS

[1] = tested on: transglutaminase activity; test: cells; conditions: read-out: Concentration inhibiting 50% of the transglutaminase enzyme activity

Cc1cc2c(cc1C(=O)c1ccc(C(=O)O)cc1)C(C)(C)CCC2(C)C [3-methyl-TTNCB, 4-[(3,5,5,8,8-pentamethyl-5,6,7,8-tetrahydro-2-naphthyl)carbonyl]benzoic acid]
Normalized Response (%) (RXRβ/VDR): 13%
IC50 [1]: 100 nM
